# Source: US10851110B2, “Heterocyclic inhibitors of PTPN11” (priority 2016, dated 2020)
# Tested on: phospho-ERK1/2
# Assay: pERK AlphaScreen Protocol
# Type: cell-based
# Conditions: KYSE-520 cells, 2 hr, phospho-ERK1/2 AlphaScreen SureFire
# Description: KYSE-520 cells (10 k cells/well) were grown in 384-well plate in 20 uL of medium (RPMI-1640, without phenol red, containing 10% FBS) at 37° C. with 5% CO2 overnight. DMSO (control) or increasing concentrations of compounds were diluted in medium, added to the 384-well plate (5 uL/well, final DMSO concentration of 1%), and cells were then incubated with compounds for 2 hr. Phospho-ERK levels were measured using phospho-ERK1/2 AlphaScreen SureFire (PerkinElmer, TGRESB10K) following manufacturer's recommendations. Dose-response curves were analyzed using IC50 regression curve fitting (GeneData Screener). Curves were normalized to a high control without inhibitor (DMSO only), and low control (1 μM selumetinib).
smiles,measurement,value
"N[C@@H]1CCCC12CCN(c1cnc3c(-c4ccncc4Cl)n[nH]c3n1)CC2 [Example 56, (R)-8-(3-(3-chloro-pyridin-4-yl)-1H-pyrazolo[3,4-b]-pyrazin-6-yl)-8-azaspiro[4.5]decan-1-amine]",IC50,0.2 µM
